Values quoted from earlier work in paper PMC11943303, “A Metabolically Stable Apelin-13 Analog Acting as a Potent ITo Potassium Current Blocker with Potential Benefits for Brugada Syndrome” (International Journal of Molecular Sciences, 2025).

Columns and labels:
[1] = test system: angiotensin-converting enzyme 2 (ACE-2); conditions: ACE-2 cleaves apelin-13 between Pro^12 and Phe^13; cited from earlier work
[2] = parameters: method as in PMID 10777510, PMID 18272843; conditions: isoforms identified in vivo; cited from earlier work

| Substance | half-life in vivo [1] | susceptibility to proteolysis [2] |
| --- | --- | --- |
| apelin-13 | less than 1 min | highly susceptible to proteolysis |
| apelin-17 | – | highly susceptible to proteolysis |
